Test results taken from PMC8899575.

Molecular target: Ube2T (UniProt Q9NPD8)
Test: co-IP with anti-GFP, immunoblot
Conditions: reference: wild-type GFP-RACK1, with or without TNF-α; sites S110

RACK1 (from UniProt P68040) S110A GFP-RACK1
binding against the reference: weaker
